PubChem BioAssay AID624038 (The Scripps Research Institute Molecular Screening Center, 2012)
The entries are a selection whose mix differs from that of the whole data set. Some results for these compounds are left out of this collection, so the calls shown say nothing about other tests. Activity calls are given as the source filed them.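 The calls were made as follows: active = activation above the run cutoff, the mean activation of all test compounds plus 3 SD (cut at about 18% in these data); inactive = the rest.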

Chains of the proteins cited; added tags and fusions are not shown.
UniProt P08912, whole entry: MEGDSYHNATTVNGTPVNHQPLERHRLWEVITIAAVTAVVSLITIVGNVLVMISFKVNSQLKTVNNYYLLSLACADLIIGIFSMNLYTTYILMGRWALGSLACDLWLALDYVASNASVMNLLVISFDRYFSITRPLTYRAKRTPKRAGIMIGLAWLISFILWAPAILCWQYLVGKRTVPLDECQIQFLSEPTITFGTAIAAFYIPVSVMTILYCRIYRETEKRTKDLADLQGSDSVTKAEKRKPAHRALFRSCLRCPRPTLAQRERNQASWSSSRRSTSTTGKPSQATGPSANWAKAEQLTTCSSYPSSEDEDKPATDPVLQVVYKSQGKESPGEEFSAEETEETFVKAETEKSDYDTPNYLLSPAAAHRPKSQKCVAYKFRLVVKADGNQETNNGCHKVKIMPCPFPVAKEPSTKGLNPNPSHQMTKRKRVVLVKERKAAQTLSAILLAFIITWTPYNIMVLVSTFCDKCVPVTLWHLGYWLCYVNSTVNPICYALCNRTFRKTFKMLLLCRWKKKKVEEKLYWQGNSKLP

Target: Muscarinic acetylcholine receptor M5 (Homo sapiens) (UniProt P08912)
Assay: human M5 muscarinic receptor positive allosteric modulators, primary screen, CHO-K1 cells, Fluo-8 calcium fluorescence (AID 624038)
Settings: CHO-K1 hM5, Fluo-8 calcium, ACh EC20 PAM; at 3 µM; active compounds read high; 0% = ACh EC20, 100% = ACh EC100

SMILES | activation
COc1cccc(C(=O)NCC2(N3CCCCC3)CCCCC2)c1 | inactive: 13.1%
COc1ccc(Cl)cc1C(=O)NCC1(N(C)C)CCCCC1 | inactive: -4.07%
O=C(NCC1(N2CCCCC2)CCCCC1)c1cccc(Cl)c1 | inactive: 8.88%
CN(C)C1(CNC(=O)c2ccc(Br)cc2)CCCCC1 | inactive: 2.67%
COc1cc(C(=O)NCC2(N(C)C)CCCCC2)c([N+](=O)[O-])cc1OC | inactive: 5.39%
COc1ccc(Br)c(C(=O)NCC2(N3CCCCC3)CCCCC2)c1 | inactive: 11.1%
C=C(C)C#CC(O)(C(=O)OC1CCN(C)CC1)c1ccccc1 (stereo not drawn) | inactive: -34.2%
CN(C)c1cccc(C(=O)NCC2(N(C)C)CCCCC2)c1 | inactive: 0.34%
CC(C)Oc1ccc(C(=O)NCC2(N(C)C)CCCCC2)cc1 | inactive: -1.96%
O=C(OCCN1CCCC1)C(O)(c1ccccc1)c1ccccc1 | inactive: -34.9%
O=C(OC1CN2CCC1CC2)C(CO)(c1ccccc1)c1ccccc1 (stereo not drawn) | inactive: -22.4%
CC(C)N1C(=O)CC2(CCN(CCOC(=O)C(O)(c3ccccc3)c3ccccc3)CC2)C1=O | inactive: 3.02%
CCN(CC)CC(C)C(C)OC(=O)C(O)(c1ccccc1)c1ccccc1 (stereo not drawn) | inactive: -30.9%
COc1cc(SC)ccc1C(=O)NCC1(N(C)C)CCCCC1 | inactive: 0.38%
Cc1ccc(C(=O)NCC2(N3CCCCC3)CCCCC2)cc1 | inactive: 3.97%
O=C(NCC1(N2CCCCC2)CCCCC1)c1cc([N+](=O)[O-])ccc1Cl | inactive: 0.25%
C=CCN1CCN(CCOC(=O)C(O)(c2ccccc2)c2ccccc2)CC1 | inactive: -17.1%
O=C(NCC1(N2CCCCC2)CCCCC1)c1cc(F)c(F)cc1Cl | inactive: 0.9%
Cc1cc(C(=O)NCC2(N3CCCCC3)CCCCC2)ccc1[N+](=O)[O-] | inactive: 2.28%
O=C(NCC1(N2CCCCC2)CCCCC1)c1cccc(Br)c1 | inactive: 0.81%
COc1ccc(C(=O)NCC2(N(C)C)CCCCC2)cc1 | inactive: 2.69%
Cc1ccccc1C(=O)NCC1(N2CCCCC2)CCCCC1 | inactive: -2.56%
CN(C)c1ccc(C(=O)NCC2(N(C)C)CCCCC2)cc1 | inactive: 2.02%
